Results reported in ChEMBL document CHEMBL1156846, “Remote functionalization of SCH 39166: discovery of potent and selective benzazepine dopamine D1 receptor antagonists” (Bioorg Med Chem Lett, 2010).

Chains of the proteins cited; added tags and fusions are not shown.
UniProt P14416, whole entry: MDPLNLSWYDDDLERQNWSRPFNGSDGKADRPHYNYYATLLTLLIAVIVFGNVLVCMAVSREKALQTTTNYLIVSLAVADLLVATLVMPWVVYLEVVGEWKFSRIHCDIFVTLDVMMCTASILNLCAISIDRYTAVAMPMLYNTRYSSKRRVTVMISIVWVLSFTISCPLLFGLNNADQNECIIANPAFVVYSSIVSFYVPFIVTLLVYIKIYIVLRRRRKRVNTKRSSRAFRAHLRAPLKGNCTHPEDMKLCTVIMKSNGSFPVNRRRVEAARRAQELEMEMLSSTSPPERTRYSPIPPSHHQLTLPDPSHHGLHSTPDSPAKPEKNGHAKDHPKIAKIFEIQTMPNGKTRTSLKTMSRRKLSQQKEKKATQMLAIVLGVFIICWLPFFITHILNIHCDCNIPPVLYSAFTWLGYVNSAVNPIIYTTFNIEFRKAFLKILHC

Biological target: D(2) dopamine receptor (Homo sapiens, UniProt P14416)
Experiment: Displacement of [3H]methylspiperon from dopamine D2 receptor expressed in mouse LTK cells by scintillation counting
Type: cell-based

CN1CCc2cc(Cl)c(O)cc2[C@H]2c3ccccc3CC[C@@H]21 [ECOPIPAM]
Ki: 980 nM
